Results: patent US7994185B2, “Benzene sulfonamide thiazole and oxazole compounds” (Glaxo Smith Kline LLC, priority 2008, dated 2011)

Key:
[1] = test system: Human colon tumor cells (Colo205); assay: Cell growth inhibition assay (CellTiter-Glo), Colo205; format: cell-based
Method: Human colon tumor cells (Colo205) were cultured in RPMI (Mediatech 50-020-PB) containing 10% FBS and 1% penicillin-streptomycin.
The next day, compounds were diluted as follow: For 96-well assays, 13.5 μL of compound in DMSO were diluted using nine (9) serial 1:3 dilutions of 4.5 μL in 9 μL of DMSO. Medium (270 μL/well of RPMI with 10% FBS and 1% penicillin-streptomycin) was added to the plates. Aliquots (7 μL) were added to cells in the final assay giving a final DMSO concentration of 0.2%. For 384-well assays, 15 μL of compound in DMSO were diluted using nine (9) serial 1:3 dilutions of 5 μL in 10 μL of DMSO, followed by a further dilution of 5 μL of compound with 95 μL of medium, of which 2 μL were added to cells in the final assay giving a final DMSO concentration of 0.2%. Cells were incubated at 37° C., 5% CO2 for 3 days.
Total ATP was measured (as a surrogate estimate of cell number) using CellTiter-Glo® reagent (Promega G7571). Briefly, plates were removed from the incubator and allowed to equilibrate to room temperature for 30 minutes. […] Plates were incubated without shaking for a further 30 minutes and read on an LJL Analyst GT reader in luminometer mode with an integration time of 0.5 seconds per well. Percent inhibition of cell growth was calculated relative to DMSO vehicle-treated control wells.

[2] = test system: Human melanoma cancer cells (SK-MEL-28); assay: Cell growth inhibition assay (CellTiter-Glo), SK-MEL-28; format: cell-based

Measured: IC50

CC(C)(C)c1nc(-c2cccc(NS(=O)(=O)c3cc(F)ccc3F)c2F)c(-c2ccnc(N)n2)s1 [Example 57, N-{3-[5-(2-Amino-4-pyrimidinyl)-2-(1,1-dimethylethyl)-1,3-thiazol-4-yl]-2-fluorophenyl}-2,5-difluorobenzenesulfonamide]
< 100 nM: [1]; COLO 205, 72 h, Table 2a, 3 days incubation, read-out: Activity in Colo205 Tumor Cells | [1]; COLO 205, Table 2b, later runs, average for the one or more runs, categorized, read-out: IC50 for Colo205 | [2]; SK-MEL-28, 72 h, Table 3a, 3 days incubation, read-out: Activity in SK-MEL-28 Tumor Cells | [2]; SK-MEL-28, Table 3b, later runs, average for the one or more runs, categorized, read-out: IC50 for SK-MEL-28

Like-named read-outs stand apart in the source and are kept apart here.
